Data taken from US10745401B2, “Condensed lactam derivative” (Sumitomo Dainippon Pharma Co., Ltd., priority 2018, dated 2020).
pEC50, pIC50: −log10 of the molar value.

Chains of the proteins cited; added tags and fusions are not shown.
UniProt P28223, whole entry: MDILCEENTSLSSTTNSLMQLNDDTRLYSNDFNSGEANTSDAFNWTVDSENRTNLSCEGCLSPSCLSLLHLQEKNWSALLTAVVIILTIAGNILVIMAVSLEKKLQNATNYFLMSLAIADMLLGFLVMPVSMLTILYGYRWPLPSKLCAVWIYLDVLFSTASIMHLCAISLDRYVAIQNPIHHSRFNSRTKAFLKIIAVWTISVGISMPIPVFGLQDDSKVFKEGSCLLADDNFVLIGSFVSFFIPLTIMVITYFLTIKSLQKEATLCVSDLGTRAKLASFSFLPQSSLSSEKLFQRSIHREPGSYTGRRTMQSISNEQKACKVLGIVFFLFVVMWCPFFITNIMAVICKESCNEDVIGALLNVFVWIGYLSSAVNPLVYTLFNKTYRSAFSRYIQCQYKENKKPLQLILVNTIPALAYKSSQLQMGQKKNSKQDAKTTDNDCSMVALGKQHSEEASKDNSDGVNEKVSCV
UniProt P08908, whole entry: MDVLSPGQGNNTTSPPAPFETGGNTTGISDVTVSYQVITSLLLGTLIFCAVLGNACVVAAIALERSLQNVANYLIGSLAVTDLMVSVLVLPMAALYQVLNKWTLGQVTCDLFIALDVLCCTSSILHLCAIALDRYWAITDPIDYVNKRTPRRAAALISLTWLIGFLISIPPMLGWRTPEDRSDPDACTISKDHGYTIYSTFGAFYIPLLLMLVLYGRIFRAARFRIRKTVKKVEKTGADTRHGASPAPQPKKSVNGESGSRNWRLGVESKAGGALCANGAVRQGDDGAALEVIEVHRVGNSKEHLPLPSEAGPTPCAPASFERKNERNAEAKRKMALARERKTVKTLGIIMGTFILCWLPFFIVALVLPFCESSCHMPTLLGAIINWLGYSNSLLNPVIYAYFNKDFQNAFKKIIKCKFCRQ

Columns and labels:
human 5-HT2A receptor = human 5-HT2A receptor (Homo sapiens (Human), UniProt P28223); assay: Test 3: antagonist activity for human 5-HT2A receptor (aequorin luminescence, CHO-K1 cells); assay type: cell-based; settings: 1 nmol/L 5-HT
Procedure: Test 3: Evaluation of Antagonist Activity for Human 5-HT2A Receptor
Aequorin, Gα16 protein, and each receptor were transiently expressed in CHO-K1 cells (Chinese hamster ovary). […] Each compound dissolved in DMSO was added thereto, and changes in luminescence were measured by FDSS/μCELL functional drug screening system (Hamamatsu Photonics K.K.). Antagonist activity was calculated from the following formula. Antagonist activity (%)=100×{(Luminescence of well in the presence of 1 nmol/L 5-HT−Luminescence of well containing solvent)−(Luminescence of well in the presence of test compound and 1 nmol/L 5-HT−Luminescence of well containing solvent)}/(Luminescence of well in the presence of 1 nmol/L 5-HT−Luminescence of well containing solvent)

human 5-HT1A receptor = human 5-HT1A receptor (Homo sapiens (Human), UniProt P08908); assay: Test 2: agonist activity for human 5-HT1A receptor ([35S]GTPγS binding); assay type: biochemical; settings: concentration at which half the activity of Emax was obtained
Procedure: Test 2: Evaluation of Agonist Activity for Human 5-HT1A Receptor
CHO cell membrane fraction in which human 5-HT1A receptor was expressed as used in Test 1 was purchased. To a buffer containing guanosine diphosphate were added a test compound dissolved in DMSO, each receptor membrane sample diluted with buffer, and [^35S] Guanosine 5′-O-[gamma-thio]triphosphate (GTPγS). The mixture was incubated at room temperature for 60 minutes. Then, the mixture was added quickly on a glassfiber filter plate (Multiscreen FB, Millipore, Inc.), and vacuum-filtered. Radioactivity remaining on the […] was measured with a liquid scintillation counter. Agonist activity was calculated from the following formula.

SMILES | pIC50 (human 5-HT2A receptor) | pEC50 (human 5-HT1A receptor)
O=C1c2cccnc2CCN1CCN1CCN(c2nsc3ccccc23)CC1 [Example 9] | 8.58 | –
Cn1cc2c(n1)CCN(CCN1CCC(c3noc4ccccc34)CC1)C2=O [Example 17] | – | 7.33
Cn1cc2c(n1)C(=O)N(CCN1CCC(c3noc4ccccc34)CC1)CCC2 [Example 48] | – | 7.72
